Target: T1, Escherichia coli RadD, wild type (E. coli, UniProt P33919 1-586)
T1 construct: also called WT RadD
T1 sequence: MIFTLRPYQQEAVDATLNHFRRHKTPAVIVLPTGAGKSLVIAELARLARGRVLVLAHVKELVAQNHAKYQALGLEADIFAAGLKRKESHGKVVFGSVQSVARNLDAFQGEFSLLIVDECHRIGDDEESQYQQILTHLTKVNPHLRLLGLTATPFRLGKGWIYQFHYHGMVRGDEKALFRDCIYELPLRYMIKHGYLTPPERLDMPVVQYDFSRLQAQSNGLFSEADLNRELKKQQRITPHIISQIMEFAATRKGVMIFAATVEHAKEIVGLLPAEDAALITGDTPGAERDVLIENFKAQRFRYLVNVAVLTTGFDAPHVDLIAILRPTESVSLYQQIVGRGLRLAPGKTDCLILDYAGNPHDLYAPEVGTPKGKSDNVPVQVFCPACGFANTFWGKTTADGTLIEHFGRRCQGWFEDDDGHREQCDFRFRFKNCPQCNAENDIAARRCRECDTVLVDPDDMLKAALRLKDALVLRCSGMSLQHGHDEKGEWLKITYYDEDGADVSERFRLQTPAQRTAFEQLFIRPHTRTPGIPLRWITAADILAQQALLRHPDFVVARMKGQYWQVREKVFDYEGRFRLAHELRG
Experiment: ammonium sulfate co-precipitation; RadD or variant incubated with full-length SSB and 150 g/L ammonium sulfate; pellet fractions run on 12% SDS-PAGE
Settings: both partners purified

B1: Escherichia coli single-stranded DNA-binding protein (SSB), full-length (natural protein, E. coli, UniProt P0AGE0 1-178, looked up)
chain: MASRGVNKVILVGNLGQDPEVRYMPNGGAVANITLATSESWRDKATGEMKEQTEWHRVVLFGKLAEVASEYLRKGSQVYIEGQLRTRKWTDQSGQDRYTTEVVVNVGGTMQMLGGRQGGGAPAGGNIGGGQPQGGWGQPQQPQGGNQFSGGAQSRPQQSAPAAPSNEPPMDFDDDIPF
notes: also called full-length SSB
B1: binds.

Source: article PMC10238739, “Interaction with single-stranded DNA-binding protein modulates Escherichia coli RadD DNA repair activities” (The Journal of Biological Chemistry, 2023)
